The target of the assay is M2 muscarinic acetylcholine receptor (Homo sapiens, UniProt P08172). Description: G protein biosensor FRET profile in insect cells (Sf9), baculovirus expression. It is filed as cell-based. Set-up: expressed in transfected cells; host or cells: Sf9 insect cells, baculovirus infection. The text has this: Biosensor and receptor were expressed using the baculovirus system. One representative FRET profile is shown of three tests performed.

Protein sequences, listed by entry. Tags and fused reporters are not part of them.
UniProt P08172, whole entry: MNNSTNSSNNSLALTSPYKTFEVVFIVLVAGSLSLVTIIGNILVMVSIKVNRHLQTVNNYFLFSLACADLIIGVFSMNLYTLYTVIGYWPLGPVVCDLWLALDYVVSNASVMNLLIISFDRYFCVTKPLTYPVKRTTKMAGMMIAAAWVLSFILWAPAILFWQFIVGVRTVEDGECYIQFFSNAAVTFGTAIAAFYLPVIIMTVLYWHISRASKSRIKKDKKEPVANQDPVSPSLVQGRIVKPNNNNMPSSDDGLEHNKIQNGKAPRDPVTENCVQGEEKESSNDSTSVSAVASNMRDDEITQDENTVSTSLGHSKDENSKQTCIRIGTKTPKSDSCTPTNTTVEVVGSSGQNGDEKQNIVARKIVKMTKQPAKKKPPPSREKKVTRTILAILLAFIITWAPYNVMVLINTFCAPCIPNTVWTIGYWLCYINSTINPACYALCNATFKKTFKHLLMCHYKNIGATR

Molecules are shown by their SMILES.

For the compound `C[N+](C)(C)CCOC(N)=O` [carbachol], the “FRET signal intensity on addition of agonist” value is reported as “decrease in FRET signal intensity”.

These data come from patent US8580517B2, “Biosensor and use thereof to identify therapeutic drug molecules and molecules binding orphan receptors” (priority 2003, dated 2013).
